{
  "source": "PubChem BioAssay (NCI)",
  "assay_in_all_cases": "NCI-60 cell line screen, 48 h",
  "key": {"NCI-H226 lung": {"tested_on": "NCI-H226 lung"}, "NCI-H23 lung": {"tested_on": "NCI-H23 lung"}, "NCI-H322M lung": {"tested_on": "NCI-H322M lung"}, "NCI-H522 lung": {"tested_on": "NCI-H522 lung"}, "NCI/ADR-RES ovarian": {"tested_on": "NCI/ADR-RES ovarian"}, "OVCAR-3 ovarian": {"tested_on": "OVCAR-3 ovarian"}, "OVCAR-4 ovarian": {"tested_on": "OVCAR-4 ovarian"}, "OVCAR-5 ovarian": {"tested_on": "OVCAR-5 ovarian"}, "OVCAR-8 ovarian": {"tested_on": "OVCAR-8 ovarian"}, "PC-3 prostate": {"tested_on": "PC-3 prostate"}, "RPMI-8226 leukemia": {"tested_on": "RPMI-8226 leukemia"}, "RXF 393 renal": {"tested_on": "RXF 393 renal"}, "SF-268 CNS": {"tested_on": "SF-268 CNS"}, "SF-295 CNS": {"tested_on": "SF-295 CNS"}, "SF-539 CNS": {"tested_on": "SF-539 CNS"}, "SK-MEL-2 melanoma": {"tested_on": "SK-MEL-2 melanoma"}, "SK-MEL-28 melanoma": {"tested_on": "SK-MEL-28 melanoma"}, "SK-MEL-5 melanoma": {"tested_on": "SK-MEL-5 melanoma"}, "SK-OV-3 ovarian": {"tested_on": "SK-OV-3 ovarian"}, "SN12C renal": {"tested_on": "SN12C renal"}, "SNB-19 CNS": {"tested_on": "SNB-19 CNS"}, "SNB-75 CNS": {"tested_on": "SNB-75 CNS"}, "SR leukemia": {"tested_on": "SR leukemia"}, "T-47D breast": {"tested_on": "T-47D breast"}, "U251 CNS": {"tested_on": "U251 CNS"}, "UACC-62 melanoma": {"tested_on": "UACC-62 melanoma"}, "UO-31 renal": {"tested_on": "UO-31 renal"}},
  "note": "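Exposure lasted 48 hours, with cells grown in 96-well plates and compounds tested at five concentrations. Here, GI50 denotes the concentration required for 50% inhibition of growth. Definition used: TGI = concentration required for complete inhibition of growth.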",
  "data": [
    {"molecule": "O=c1[nH]c2c(N/N=C/c3ccc([N+](=O)[O-])o3)c([N+](=O)[O-])c(N/N=C/c3ccc([N+](=O)[O-])o3)c([N+](=O)[O-])c2[nH]1", "values": [
      {"measurement": "TGI", "setting": "NCI-H226 lung", "value": 20.3, "unit": "µM"},
      {"measurement": "GI50", "setting": "NCI-H23 lung", "value": 6.44, "unit": "µM"},
      {"measurement": "TGI", "setting": "NCI-H23 lung", "value": 23.1, "unit": "µM"},
      {"measurement": "GI50", "setting": "NCI-H322M lung", "value": 10.4, "unit": "µM"},
      {"measurement": "TGI", "setting": "NCI-H322M lung", "value": 23.9, "unit": "µM"},
      {"measurement": "GI50", "setting": "NCI-H522 lung", "value": 1.35, "unit": "µM"},
      {"measurement": "TGI", "setting": "NCI-H522 lung", "value": 2.96, "unit": "µM"},
      {"measurement": "GI50", "setting": "NCI/ADR-RES ovarian", "value": 7.74, "unit": "µM"},
      {"measurement": "TGI", "setting": "NCI/ADR-RES ovarian", "value": 42.5, "unit": "µM"},
      {"measurement": "GI50", "setting": "OVCAR-3 ovarian", "value": 2.8, "unit": "µM"},
      {"measurement": "TGI", "setting": "OVCAR-3 ovarian", "value": 7.71, "unit": "µM"},
      {"measurement": "GI50", "setting": "OVCAR-4 ovarian", "value": 3.83, "unit": "µM"},
      {"measurement": "TGI", "setting": "OVCAR-4 ovarian", "value": 13.3, "unit": "µM"},
      {"measurement": "GI50", "setting": "OVCAR-5 ovarian", "value": 19.1, "unit": "µM"},
      {"measurement": "TGI", "setting": "OVCAR-5 ovarian", "value": 39.5, "unit": "µM"},
      {"measurement": "GI50", "setting": "OVCAR-8 ovarian", "value": 3.77, "unit": "µM"},
      {"measurement": "TGI", "setting": "OVCAR-8 ovarian", "value": 13.4, "unit": "µM"},
      {"measurement": "GI50", "setting": "PC-3 prostate", "value": 4.45, "unit": "µM"},
      {"measurement": "TGI", "setting": "PC-3 prostate", "value": 20.4, "unit": "µM"},
      {"measurement": "GI50", "setting": "RPMI-8226 leukemia", "value": 3.29, "unit": "µM"},
      {"measurement": "TGI", "setting": "RPMI-8226 leukemia", "value": "> 100", "unit": "µM"},
      {"measurement": "GI50", "setting": "RXF 393 renal", "value": 3.73, "unit": "µM"},
      {"measurement": "TGI", "setting": "RXF 393 renal", "value": 13.2, "unit": "µM"},
      {"measurement": "GI50", "setting": "SF-268 CNS", "value": 2.36, "unit": "µM"},
      {"measurement": "TGI", "setting": "SF-268 CNS", "value": 14.2, "unit": "µM"},
      {"measurement": "GI50", "setting": "SF-295 CNS", "value": 18.7, "unit": "µM"},
      {"measurement": "TGI", "setting": "SF-295 CNS", "value": 37.6, "unit": "µM"},
      {"measurement": "GI50", "setting": "SF-539 CNS", "value": 2.55, "unit": "µM"},
      {"measurement": "TGI", "setting": "SF-539 CNS", "value": 7.23, "unit": "µM"},
      {"measurement": "GI50", "setting": "SK-MEL-2 melanoma", "value": 3.2, "unit": "µM"},
      {"measurement": "TGI", "setting": "SK-MEL-2 melanoma", "value": 19.3, "unit": "µM"},
      {"measurement": "GI50", "setting": "SK-MEL-28 melanoma", "value": 6.02, "unit": "µM"},
      {"measurement": "TGI", "setting": "SK-MEL-28 melanoma", "value": 25.1, "unit": "µM"},
      {"measurement": "GI50", "setting": "SK-MEL-5 melanoma", "value": 8.06, "unit": "µM"},
      {"measurement": "TGI", "setting": "SK-MEL-5 melanoma", "value": 21.3, "unit": "µM"},
      {"measurement": "GI50", "setting": "SK-OV-3 ovarian", "value": 15.1, "unit": "µM"},
      {"measurement": "TGI", "setting": "SK-OV-3 ovarian", "value": 29.2, "unit": "µM"},
      {"measurement": "GI50", "setting": "SN12C renal", "value": 4.43, "unit": "µM"},
      {"measurement": "TGI", "setting": "SN12C renal", "value": 19.9, "unit": "µM"},
      {"measurement": "GI50", "setting": "SNB-19 CNS", "value": 7.2, "unit": "µM"},
      {"measurement": "TGI", "setting": "SNB-19 CNS", "value": 22.5, "unit": "µM"},
      {"measurement": "GI50", "setting": "SNB-75 CNS", "value": 3.21, "unit": "µM"},
      {"measurement": "TGI", "setting": "SNB-75 CNS", "value": 12.2, "unit": "µM"},
      {"measurement": "GI50", "setting": "SR leukemia", "value": 1.74, "unit": "µM"},
      {"measurement": "TGI", "setting": "SR leukemia", "value": "> 100", "unit": "µM"},
      {"measurement": "GI50", "setting": "T-47D breast", "value": 1.45, "unit": "µM"},
      {"measurement": "TGI", "setting": "T-47D breast", "value": 6.99, "unit": "µM"},
      {"measurement": "GI50", "setting": "U251 CNS", "value": 2.75, "unit": "µM"},
      {"measurement": "TGI", "setting": "U251 CNS", "value": 11.5, "unit": "µM"},
      {"measurement": "GI50", "setting": "UACC-62 melanoma", "value": 5.61, "unit": "µM"},
      {"measurement": "TGI", "setting": "UACC-62 melanoma", "value": 19.3, "unit": "µM"},
      {"measurement": "GI50", "setting": "UO-31 renal", "value": 13.3, "unit": "µM"},
      {"measurement": "TGI", "setting": "UO-31 renal", "value": 26.8, "unit": "µM"}
    ]}
  ]
}
